Measurements: the OPERA property sets (Mansouri et al. 2018)
≈ marks a conversion by molar mass, not a printed value.

Conditions: experimental values compiled from the literature

Question: Which solubility does the source give for Nc1cc([N+](=O)[O-])cc([N+](=O)[O-])c1O here?
Answer: 4.79 mM (≈ 954 µg/mL)

Question: With C[As](=O)(O)O as the compound, how does the solubility read?
Answer: 1830 mM

Question: With O=[N+]([O-])c1ccccc1[N+](=O)[O-] as the compound, how does the solubility read?
Answer: 0.791 mM (≈ 133 µg/mL)

Question: Which solubility does the source give for O=[N+]([O-])c1ccc([N+](=O)[O-])cc1 here?
Answer: 0.41 mM (≈ 69 µg/mL)

Question: For N=C(NN)N[N+](=O)[O-], which solubility is on record?
Answer: 22.6 mM (≈ 2690 µg/mL)

Question: Which solubility does the source give for N=C(N)N[N+](=O)[O-] here?
Answer: 42.3 mM (≈ 4400 µg/mL)

Question: Which solubility does the source give for CC(C)OP(=S)(OC(C)C)SCCNS(=O)(=O)c1ccccc1 here?
Answer: 0.0629 mM (≈ 25 µg/mL)

Question: With O=[N+]([O-])OCC(O)CO[N+](=O)[O-] as the compound, how does the solubility read?
Answer: 431 mM (≈ 78400 µg/mL)

Question: Which solubility does the source give for CCOP(=S)(CC)Oc1cc(Cl)c(Cl)cc1Cl (stereo not drawn) here?
Answer: 0.00177 mM (≈ 0.59 µg/mL)

Question: With O=[N+]([O-])c1cc([N+](=O)[O-])c(O)c([N+](=O)[O-])c1O as the compound, how does the solubility read?
Answer: 21.8 mM (≈ 5340 µg/mL)

Question: For CN(C)P(=O)(N(C)C)n1nc(-c2ccccc2)nc1N, which solubility is on record?
Answer: 0.849 mM (≈ 250 µg/mL)

Question: For O=[N+]([O-])C(Cl)([N+](=O)[O-])[N+](=O)[O-], which solubility is on record?
Answer: 11.9 mM (≈ 2200 µg/mL)

Question: Which solubility does the source give for O=C(O)C(O)(c1ccccc1)c1ccccc1 here?
Answer: 6.18 mM (≈ 1410 µg/mL)
